Laboratory results as given in ChEMBL document CHEMBL3414440, “Pure enantiomers of benzoylamino-tranylcypromine: LSD1 inhibition, gene modulation in human leukemia cells and effects on clonogenic potential of murine promyelocytic blasts” (Eur J Med Chem, 2015).

Sequences of proteins named here, by UniProt entry; tags and fusion partners are left off.
UniProt P21397, whole entry: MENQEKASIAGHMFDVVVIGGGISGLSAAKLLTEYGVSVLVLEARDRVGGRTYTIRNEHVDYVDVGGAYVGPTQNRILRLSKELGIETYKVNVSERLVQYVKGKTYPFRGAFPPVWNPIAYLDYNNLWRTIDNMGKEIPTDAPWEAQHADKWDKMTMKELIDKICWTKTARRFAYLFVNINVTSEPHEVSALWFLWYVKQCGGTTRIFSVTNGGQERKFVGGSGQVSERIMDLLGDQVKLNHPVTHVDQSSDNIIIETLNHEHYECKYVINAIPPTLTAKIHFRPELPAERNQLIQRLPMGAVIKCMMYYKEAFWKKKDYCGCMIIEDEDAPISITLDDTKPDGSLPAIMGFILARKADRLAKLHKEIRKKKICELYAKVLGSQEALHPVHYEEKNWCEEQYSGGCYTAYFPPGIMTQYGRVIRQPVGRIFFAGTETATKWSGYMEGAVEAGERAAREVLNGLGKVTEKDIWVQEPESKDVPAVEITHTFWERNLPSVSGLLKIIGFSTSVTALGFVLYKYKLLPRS
UniProt P27338, whole entry: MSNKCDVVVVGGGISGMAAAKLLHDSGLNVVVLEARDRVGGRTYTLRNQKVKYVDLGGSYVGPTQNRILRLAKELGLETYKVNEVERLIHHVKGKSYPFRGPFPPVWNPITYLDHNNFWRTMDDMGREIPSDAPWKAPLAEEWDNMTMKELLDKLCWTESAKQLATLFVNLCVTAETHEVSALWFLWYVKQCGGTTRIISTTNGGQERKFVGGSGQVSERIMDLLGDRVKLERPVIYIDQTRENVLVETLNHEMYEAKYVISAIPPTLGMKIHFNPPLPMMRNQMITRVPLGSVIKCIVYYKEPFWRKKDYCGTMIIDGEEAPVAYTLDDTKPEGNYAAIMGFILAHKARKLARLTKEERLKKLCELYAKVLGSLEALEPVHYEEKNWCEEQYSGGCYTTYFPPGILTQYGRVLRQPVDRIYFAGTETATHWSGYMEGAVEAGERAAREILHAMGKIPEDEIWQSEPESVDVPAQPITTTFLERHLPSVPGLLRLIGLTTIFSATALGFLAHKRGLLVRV

Tests used:
[1] = target: Amine oxidase [flavin-containing] A (Homo sapiens, UniProt P21397)
[2] = target: Amine oxidase [flavin-containing] B (Homo sapiens, UniProt P27338)

| Compound | IC50 [1] | IC50 [2] |
| --- | --- | --- |
| N[C@H]1C[C@@H]1c1ccc(NC(=O)c2ccccc2)cc1 | 0.039 µM | 12.3 µM |
| N[C@@H]1C[C@H]1c1ccc(NC(=O)c2ccccc2)cc1 | 0.024 µM | 16.8 µM |
| N[C@@H]1C[C@@H]1c1ccc(NC(=O)c2ccccc2)cc1 | 0.037 µM | 19.2 µM |
| N[C@H]1C[C@H]1c1ccc(NC(=O)c2ccccc2)cc1 | 0.025 µM | 21.2 µM |
| NC1CC1c1ccc(NC(=O)c2ccccc2)cc1 (racemic) | 0.031 µM | 8.98 µM |
